Biological target: rat orexin-1 receptor (Rattus norvegicus (Rat), UniProt P56718)
Test: FLIPR Ca2+ Flux Assay, orexin-1 receptor
Assay type: cell-based
Conditions: CHO cells expressing the rat orexin-1 receptor; agonist 70 pM Ala-6,12 human orexin-A; read-out: hOX1R FLIPR IC50
Protocol: In a typical experiment the OX1 and OX2 receptor antagonistic activity of the compounds of the present invention was determined in accordance with the following experimental method. For intracellular calcium measurements, Chinese hamster ovary (CHO) cells expressing the rat orexin-1 receptor or the human orexin-2 receptor, are grown in Iscove's modified DMEM containing 2 mM L-glutamine, […], 1% hypoxanthine-thymidine supplement, 100 U/ml penicillin, 100 μg/ml streptomycin and 10% heat-inactivated fetal calf serum (FCS). The cells are seeded at 20,000 cells/well into Becton-Dickinson black 384-well clear bottom sterile plates coated with poly-D-lysine. […] Within the Fluorescent Imaging Plate Reader (FLIPR, Molecular Devices), test compounds are added to the plate in a volume of 25 μl, incubated for 5 min and finally 25 μl of agonist is added. Fluorescence is measured for each well at 1 second intervals for 5 minutes and the height of each fluorescence peak is compared to the height of the fluorescence peak induced by 70 pM Ala-6,12 orexin-A with buffer in place of antagonist. […] Alternatively, compound potency can be assessed by a radioligand binding assay (described in Bergman et. al. Bioorg. Med. Chem. Lett. 2008, 18, 1425-1430) in which the inhibition constant (Ki) is determined in membranes prepared from CHO cells expressing either the OX1 or OX2 receptor. […]

Sequences of proteins named here, by UniProt entry; tags and fusion partners are left off.
UniProt P56718, whole entry: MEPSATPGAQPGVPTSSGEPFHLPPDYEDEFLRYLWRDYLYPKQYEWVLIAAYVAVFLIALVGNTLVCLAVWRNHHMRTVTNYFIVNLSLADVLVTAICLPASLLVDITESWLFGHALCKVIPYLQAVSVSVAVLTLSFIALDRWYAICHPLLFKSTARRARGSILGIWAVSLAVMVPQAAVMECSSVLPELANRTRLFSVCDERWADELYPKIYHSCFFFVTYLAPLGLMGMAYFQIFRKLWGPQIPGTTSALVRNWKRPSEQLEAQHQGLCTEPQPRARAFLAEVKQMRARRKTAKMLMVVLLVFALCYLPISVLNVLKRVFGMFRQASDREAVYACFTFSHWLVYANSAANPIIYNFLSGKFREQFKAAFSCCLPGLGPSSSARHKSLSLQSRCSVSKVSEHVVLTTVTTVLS

Compound	IC50 [µM]
COc1ccc(C(=O)N2C[C@H](Oc3nccc(C#N)c3C)CC[C@H]2C)c(-c2ccncc2)n1 [Example 48, 2-({(3R,6R)-1-[(6-methoxy-2,4′-bipyridin-3-yl)carbonyl]-6-methylpiperidin-3-yl}oxy)-3-methylpyridine-4-carbonitrile]	> 10
COc1ccc(C(=O)N2C[C@H](Oc3nccc(C#N)c3C)CC[C@H]2C)c(C2CC2)n1 [Example 5, 2-({(3R,6R)-1-[(2-cyclopropyl-6-methoxypyridin-3-yl)carbonyl]-6-methylpiperidin-3-yl}oxy)-3-methylpyridine-4-carbonitrile]	> 10

— US9546152B2 (MERCK SHARP & DOHME CORP., priority 2012, dated 2017)
